Literature values, collected in paper PMC11856326, “Structure-activity studies of bispyridinium antinicotinics to select candidates to treat soman intoxication as part of a combined therapy” (2025).
Like-named read-outs stand apart in the source and are kept apart here. Marks after values point to notes of the source that are not given here.

Columns and labels:
mice = conditions: cited from earlier work; for LD50 i.m. mice: number in brackets = i.m.
[1] = tested on: Human acetylcholinesterase (hAChE); conditions: read-out: hAChE IC50, cited from earlier work

| Structure (SMILES) | LD50 i.m. mice (mice; R = H column (also common oximes)) [mg/kg] | LD50 i.v. mice (mice; R = H column (also common oximes), bispyridinium dibromides) [mg/kg] | IC50 ([1]; R = H series) [µM] | LD50 i.m. mice (mice; R = t-Bu column) | IC50 ([1]; R = t-Bu series) [µM] |
| --- | --- | --- | --- | --- | --- |
| c1cc[n+](CCCCC[n+]2ccccc2)cc1 | 116 | 32 | 711 |  |  |
| CC(C)(C)c1cc[n+](CCC[n+]2ccc(C(C)(C)C)cc2)cc1 |  |  |  | (167) ^c mg·kg^−1 | 404 |
